# Data: patent EP4834897A1, “COMPOUNDS WITH TWO AZAHETEROCYCLES SUBSTITUTED ISOINDOLINONE SKELETON AND USES THEREOF” (dated 2026)
# Amino acid sequences for entries named in this document (tags omitted).
# UniProt Q13422, whole entry: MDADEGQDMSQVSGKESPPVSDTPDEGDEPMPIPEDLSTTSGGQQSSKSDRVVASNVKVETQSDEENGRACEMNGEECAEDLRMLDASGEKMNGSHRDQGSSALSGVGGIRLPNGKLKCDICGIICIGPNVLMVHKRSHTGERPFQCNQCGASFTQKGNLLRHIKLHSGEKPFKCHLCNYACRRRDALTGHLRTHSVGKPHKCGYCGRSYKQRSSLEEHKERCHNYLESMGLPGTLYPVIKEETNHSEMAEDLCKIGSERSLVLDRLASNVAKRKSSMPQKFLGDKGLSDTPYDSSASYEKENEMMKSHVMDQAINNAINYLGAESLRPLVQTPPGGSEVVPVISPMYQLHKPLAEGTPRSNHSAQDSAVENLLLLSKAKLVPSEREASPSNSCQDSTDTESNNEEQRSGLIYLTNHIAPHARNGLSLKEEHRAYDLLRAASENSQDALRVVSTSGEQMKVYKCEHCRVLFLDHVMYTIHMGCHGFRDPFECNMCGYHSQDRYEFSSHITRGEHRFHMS
# UniProt Q96SW2, whole entry: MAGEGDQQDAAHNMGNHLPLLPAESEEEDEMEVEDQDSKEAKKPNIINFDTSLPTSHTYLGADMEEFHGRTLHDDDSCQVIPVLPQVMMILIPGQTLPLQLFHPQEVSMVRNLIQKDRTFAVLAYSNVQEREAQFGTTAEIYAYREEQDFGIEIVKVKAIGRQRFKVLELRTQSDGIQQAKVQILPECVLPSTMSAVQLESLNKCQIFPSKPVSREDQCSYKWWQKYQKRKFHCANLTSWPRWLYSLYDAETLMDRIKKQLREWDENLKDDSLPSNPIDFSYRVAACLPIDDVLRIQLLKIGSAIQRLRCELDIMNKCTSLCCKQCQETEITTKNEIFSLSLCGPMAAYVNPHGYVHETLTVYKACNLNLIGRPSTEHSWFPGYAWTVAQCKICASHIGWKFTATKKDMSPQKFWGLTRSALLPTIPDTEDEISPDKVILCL
# UniProt Q9UKT9, whole entry: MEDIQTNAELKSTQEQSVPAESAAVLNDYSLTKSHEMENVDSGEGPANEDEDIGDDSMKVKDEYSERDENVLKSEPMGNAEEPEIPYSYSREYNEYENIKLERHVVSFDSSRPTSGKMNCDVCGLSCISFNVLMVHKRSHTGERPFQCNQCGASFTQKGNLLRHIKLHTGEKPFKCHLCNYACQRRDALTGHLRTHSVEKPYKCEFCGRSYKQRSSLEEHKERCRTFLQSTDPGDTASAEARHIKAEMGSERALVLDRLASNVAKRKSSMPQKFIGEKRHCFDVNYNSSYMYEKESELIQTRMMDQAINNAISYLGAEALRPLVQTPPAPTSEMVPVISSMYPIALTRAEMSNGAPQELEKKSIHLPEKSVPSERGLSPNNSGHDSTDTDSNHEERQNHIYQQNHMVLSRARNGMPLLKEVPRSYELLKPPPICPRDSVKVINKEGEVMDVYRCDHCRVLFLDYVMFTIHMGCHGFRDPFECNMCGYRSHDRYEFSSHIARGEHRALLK
# UniProt P30291, whole entry: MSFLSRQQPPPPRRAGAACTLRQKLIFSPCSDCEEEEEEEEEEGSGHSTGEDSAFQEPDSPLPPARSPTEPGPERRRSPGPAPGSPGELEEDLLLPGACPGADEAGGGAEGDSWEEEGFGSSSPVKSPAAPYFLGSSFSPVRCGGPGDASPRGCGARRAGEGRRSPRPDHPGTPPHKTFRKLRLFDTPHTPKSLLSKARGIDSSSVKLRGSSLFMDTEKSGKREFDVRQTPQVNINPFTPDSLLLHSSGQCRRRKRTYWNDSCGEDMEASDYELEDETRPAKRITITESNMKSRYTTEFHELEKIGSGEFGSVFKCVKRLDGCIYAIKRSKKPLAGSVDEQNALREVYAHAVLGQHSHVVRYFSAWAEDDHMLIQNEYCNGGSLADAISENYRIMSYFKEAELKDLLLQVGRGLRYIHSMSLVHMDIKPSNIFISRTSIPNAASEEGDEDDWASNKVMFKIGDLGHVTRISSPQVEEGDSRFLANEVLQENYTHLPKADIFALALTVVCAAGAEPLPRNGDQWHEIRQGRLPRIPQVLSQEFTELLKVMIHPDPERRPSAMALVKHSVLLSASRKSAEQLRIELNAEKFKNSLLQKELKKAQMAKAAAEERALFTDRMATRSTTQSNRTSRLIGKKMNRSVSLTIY
# UniProt P48729, whole entry: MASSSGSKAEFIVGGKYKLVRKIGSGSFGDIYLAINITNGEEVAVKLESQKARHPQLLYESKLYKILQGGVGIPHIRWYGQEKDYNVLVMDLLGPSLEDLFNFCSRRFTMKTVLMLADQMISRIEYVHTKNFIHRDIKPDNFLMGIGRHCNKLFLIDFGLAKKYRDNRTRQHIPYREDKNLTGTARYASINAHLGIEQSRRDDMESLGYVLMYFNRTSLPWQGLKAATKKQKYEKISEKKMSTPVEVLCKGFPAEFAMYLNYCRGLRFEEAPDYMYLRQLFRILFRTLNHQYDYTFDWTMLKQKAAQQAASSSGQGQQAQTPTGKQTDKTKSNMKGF
# UniProt Q9UKS7, whole entry: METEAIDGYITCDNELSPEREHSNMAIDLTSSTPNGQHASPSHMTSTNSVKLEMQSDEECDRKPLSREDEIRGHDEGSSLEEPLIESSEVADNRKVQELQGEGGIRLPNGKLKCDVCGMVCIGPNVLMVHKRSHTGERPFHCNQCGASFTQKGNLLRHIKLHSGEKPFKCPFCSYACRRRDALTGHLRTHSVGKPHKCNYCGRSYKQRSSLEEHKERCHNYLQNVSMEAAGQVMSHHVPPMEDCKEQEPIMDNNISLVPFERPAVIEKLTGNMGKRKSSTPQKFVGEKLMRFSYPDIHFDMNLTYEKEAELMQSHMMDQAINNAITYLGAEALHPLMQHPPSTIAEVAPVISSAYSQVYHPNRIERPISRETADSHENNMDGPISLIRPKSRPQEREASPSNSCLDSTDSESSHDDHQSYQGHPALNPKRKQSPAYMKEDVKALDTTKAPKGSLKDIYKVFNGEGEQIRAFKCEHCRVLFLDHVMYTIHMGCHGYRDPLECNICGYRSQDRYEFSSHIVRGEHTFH
# UniProt P15170, whole entry: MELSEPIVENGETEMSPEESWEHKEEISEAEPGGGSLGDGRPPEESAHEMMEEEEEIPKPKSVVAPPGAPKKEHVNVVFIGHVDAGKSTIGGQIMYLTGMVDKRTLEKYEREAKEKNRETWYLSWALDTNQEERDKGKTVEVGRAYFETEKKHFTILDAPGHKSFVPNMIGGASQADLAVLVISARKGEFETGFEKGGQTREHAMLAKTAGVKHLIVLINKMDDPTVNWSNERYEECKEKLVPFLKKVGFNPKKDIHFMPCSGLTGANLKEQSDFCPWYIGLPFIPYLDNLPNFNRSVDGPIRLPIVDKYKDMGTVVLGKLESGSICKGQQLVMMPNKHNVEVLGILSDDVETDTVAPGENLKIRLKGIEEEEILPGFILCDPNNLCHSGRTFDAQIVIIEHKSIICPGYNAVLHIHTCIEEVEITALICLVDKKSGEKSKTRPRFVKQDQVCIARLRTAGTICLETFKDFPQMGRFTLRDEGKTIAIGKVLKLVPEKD
# UniProt Q16531, whole entry partner: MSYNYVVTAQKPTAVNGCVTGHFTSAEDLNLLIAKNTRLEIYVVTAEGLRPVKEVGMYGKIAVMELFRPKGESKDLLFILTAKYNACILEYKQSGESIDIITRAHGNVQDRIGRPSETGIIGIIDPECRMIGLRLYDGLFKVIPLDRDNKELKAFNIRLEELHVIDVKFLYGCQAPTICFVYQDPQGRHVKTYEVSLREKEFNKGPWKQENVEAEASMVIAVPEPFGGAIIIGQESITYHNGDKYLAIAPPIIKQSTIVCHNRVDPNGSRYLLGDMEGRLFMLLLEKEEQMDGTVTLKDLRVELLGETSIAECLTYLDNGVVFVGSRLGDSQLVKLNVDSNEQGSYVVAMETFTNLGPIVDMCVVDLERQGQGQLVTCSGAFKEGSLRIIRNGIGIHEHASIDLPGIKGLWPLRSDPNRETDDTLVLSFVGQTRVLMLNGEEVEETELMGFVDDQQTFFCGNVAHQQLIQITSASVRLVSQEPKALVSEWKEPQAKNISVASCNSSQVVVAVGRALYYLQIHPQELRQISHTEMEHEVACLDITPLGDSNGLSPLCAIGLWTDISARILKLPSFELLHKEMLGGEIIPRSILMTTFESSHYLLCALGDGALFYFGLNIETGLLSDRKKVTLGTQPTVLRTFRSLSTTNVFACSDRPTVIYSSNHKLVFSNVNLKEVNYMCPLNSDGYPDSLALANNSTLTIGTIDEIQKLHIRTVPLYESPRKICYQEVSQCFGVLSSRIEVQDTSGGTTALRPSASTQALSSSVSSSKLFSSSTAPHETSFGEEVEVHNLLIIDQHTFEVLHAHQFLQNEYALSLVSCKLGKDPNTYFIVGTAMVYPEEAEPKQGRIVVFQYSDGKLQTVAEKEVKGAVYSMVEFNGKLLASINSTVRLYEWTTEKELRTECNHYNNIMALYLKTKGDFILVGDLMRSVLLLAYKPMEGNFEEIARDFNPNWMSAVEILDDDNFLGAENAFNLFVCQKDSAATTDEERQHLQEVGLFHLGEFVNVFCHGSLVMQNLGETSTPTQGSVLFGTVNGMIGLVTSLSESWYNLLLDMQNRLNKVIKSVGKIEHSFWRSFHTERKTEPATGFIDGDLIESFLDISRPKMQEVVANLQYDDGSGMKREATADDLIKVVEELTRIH
# Assays:
# IKZF1 = IKZF1 (Homo sapiens, UniProt Q13422+Q96SW2); experiment: Western blot assay of substrate protein degradation in hPBMCs; conditions: 24 hours treatment, compounds at 50 nM and 500 nM (concentration behind the class not stated)
# IKZF3 = IKZF3 (Homo sapiens, UniProt Q96SW2+Q9UKT9); experiment: as above; conditions: 24 hours treatment, compounds at 50 nM and 500 nM (concentration behind the class not stated)
# WEE1 = WEE1 (Homo sapiens, UniProt P30291+Q96SW2); experiment: as above; conditions: 24 hours treatment, compounds at 50 nM and 500 nM (concentration behind the class not stated)
# CK1α = CK1α (Homo sapiens, UniProt P48729+Q96SW2); experiment: as above; conditions: 24 hours treatment, compounds at 50 nM and 500 nM (concentration behind the class not stated)
# IKZF2 = IKZF2 (Homo sapiens, UniProt Q96SW2+Q9UKS7); experiment: as above; conditions: 24 hours treatment, compounds at 50 nM and 500 nM (concentration behind the class not stated)
# GSPT1 = GSPT1 (Homo sapiens, UniProt P15170+Q96SW2); experiment: as above; conditions: 24 hours treatment, compounds at 50 nM and 500 nM (concentration behind the class not stated)
# [1] = system: Human myeloid monocytic leukemia cell (MV-4-11); experiment: Tumor cell proliferation inhibition (cell viability assay); conditions: MV-4-11 cells, 96 hours
# CRBN = CRBN (Homo sapiens, UniProt Q96SW2); experiment: CRBN binding affinity by HTRF (CEREBLON BINDING kit); conditions: CRBN binding, HTRF; for Inhibition Rate at 0.5 µM (%): compound at 0.5 µM; for Inhibition Rate at 2 µM (%): compound at 2 µM
Structure (SMILES),Inhibition Rate at 0.5 µM (%) (CRBN),Inhibition Rate at 2 µM (%) (CRBN),substrate protein remaining % (IKZF 1) (IKZF1),substrate protein remaining % (IKZF3) (IKZF3),substrate protein remaining % (WEE1) (WEE1),substrate protein remaining % (CK1a) (CK1α),substrate protein remaining % (IKZF2) (IKZF2),substrate protein remaining % (GSPT1) (GSPT1),Inhibition Rate at 10 nM (%) [1],Inhibition Rate at 500 nM (%) [1]
O=C1CCC(N2Cc3cc(C(=O)N4CCC(N5CCN(C(c6ccccc6)c6ccccc6)CC5)CC4)ccc3C2=O)C(=O)N1 (centres unmarked),a3 (30% < a3 ≤ 40%),a6 (60% < a6 ≤ 70%),A (0% ≤ substrate protein remaining % ≤ 80%),B (80%< substrate protein remaining %≤ 100%),A (0% ≤ substrate protein remaining % ≤ 80%),B (80%< substrate protein remaining %≤ 100%),B (80%< substrate protein remaining %≤ 100%),A (0% ≤ substrate protein remaining % ≤ 80%),1a7 (50% ≤ 1a7 < 60%),1a9 (70% ≤ 1a9 < 80%)
O=C1CCC(N2Cc3cc(CN4CCC(N5CCN(c6cccc(Cl)c6Cl)CC5)CC4)ccc3C2=S)C(=O)N1 (centres unmarked),a4 (40% < a4 ≤ 53%),a8 (80% < a8 ≤100%),B (80%< substrate protein remaining %≤ 100%),A (0% ≤ substrate protein remaining % ≤ 80%),A (0% ≤ substrate protein remaining % ≤ 80%),B (80%< substrate protein remaining %≤ 100%),B (80%< substrate protein remaining %≤ 100%),A (0% ≤ substrate protein remaining % ≤ 80%),1a7 (50% ≤ 1a7 < 60%),1a9 (70% ≤ 1a9 < 80%)

# Now from value to compound, other results behind:
Inhibition Rate at 0.5 µM (%) (CRBN),Inhibition Rate at 2 µM (%) (CRBN),Structure (SMILES),substrate protein remaining % (IKZF 1) (IKZF1),substrate protein remaining % (IKZF3) (IKZF3),substrate protein remaining % (WEE1) (WEE1),substrate protein remaining % (CK1a) (CK1α),substrate protein remaining % (IKZF2) (IKZF2),substrate protein remaining % (GSPT1) (GSPT1),Inhibition Rate at 10 nM (%) [1],Inhibition Rate at 500 nM (%) [1]
a4 (40% < a4 ≤ 53%),a8 (80% < a8 ≤100%),O=C1CCC(N2Cc3cc(CN4CCC(N5CC=C(c6cccc(Cl)c6Cl)CC5)C(F)(F)C4)cc(F)c3C2=O)C(=O)N1 (centres unmarked),B (80%< substrate protein remaining %≤ 100%),B (80%< substrate protein remaining %≤ 100%),B (80%< substrate protein remaining %≤ 100%),B (80%< substrate protein remaining %≤ 100%),B (80%< substrate protein remaining %≤ 100%),A (0% ≤ substrate protein remaining % ≤ 80%),1a7 (50% ≤ 1a7 < 60%),1a7 (50% ≤ 1a7 < 60%)
a4 (40% < a4 ≤ 53%),a8 (80% < a8 ≤100%),O=C1CCC(N2Cc3c(C(=O)N4CCC(N5CCN(c6noc7cc(F)ccc67)CC5)C(F)(F)C4)cccc3C2=O)C(=O)N1 (centres unmarked),B (80%< substrate protein remaining %≤ 100%),B (80%< substrate protein remaining %≤ 100%),A (0% ≤ substrate protein remaining % ≤ 80%),A (0% ≤ substrate protein remaining % ≤ 80%),B (80%< substrate protein remaining %≤ 100%),A (0% ≤ substrate protein remaining % ≤ 80%),1a5 (30% ≤ 1a5 ≤ 40%),1a9 (70% ≤ 1a9 < 80%)
a3 (30% < a3 ≤ 40%),a6 (60% < a6 ≤ 70%),O=C1CCC(N2Cc3cc(C(=O)N4CCC(N5CC=C(c6cccc(Cl)c6Cl)CC5)C(F)(F)C4)ccc3C2=O)C(=O)N1 (centres unmarked),A (0% ≤ substrate protein remaining % ≤ 80%),B (80%< substrate protein remaining %≤ 100%),A (0% ≤ substrate protein remaining % ≤ 80%),A (0% ≤ substrate protein remaining % ≤ 80%),A (0% ≤ substrate protein remaining % ≤ 80%),A (0% ≤ substrate protein remaining % ≤ 80%),1a4 (20% ≤ 1a4 < 30%),1a7 (50% ≤ 1a7 < 60%)
